Results published in patent US10266496B2, “Carboxy substituted (hetero) aromatic ring derivatives and preparation method and uses thereof” (SUNSHINE LAKE PHARMA CO., LTD., priority 2015, dated 2019).

Protein sequences, listed by entry. Tags and fused reporters are not part of them. Lines headed by an entry give the natural chain unless they say otherwise; changes in a name come on top.
UniProt Q96S37: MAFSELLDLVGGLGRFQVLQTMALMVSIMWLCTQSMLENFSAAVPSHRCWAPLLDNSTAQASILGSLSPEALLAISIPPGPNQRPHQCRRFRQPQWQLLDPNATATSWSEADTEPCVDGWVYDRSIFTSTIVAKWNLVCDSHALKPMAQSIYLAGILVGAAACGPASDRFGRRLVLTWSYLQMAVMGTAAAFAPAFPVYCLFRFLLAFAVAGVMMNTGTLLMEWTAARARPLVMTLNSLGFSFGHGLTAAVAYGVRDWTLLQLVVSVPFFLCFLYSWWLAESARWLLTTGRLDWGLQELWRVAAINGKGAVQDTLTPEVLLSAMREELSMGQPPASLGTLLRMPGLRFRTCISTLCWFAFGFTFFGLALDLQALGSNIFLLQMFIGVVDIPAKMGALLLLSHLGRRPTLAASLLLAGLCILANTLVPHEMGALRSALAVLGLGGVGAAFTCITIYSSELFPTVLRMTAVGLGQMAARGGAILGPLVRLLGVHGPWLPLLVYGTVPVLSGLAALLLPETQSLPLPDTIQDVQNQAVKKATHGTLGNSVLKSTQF

Molecular target: hURAT1 (Homo sapiens (Human), UniProt Q96S37)
Assay: URAT1 (urate anion transporter) inhibition activity assay: [8-14C] uric acid absorption inhibition in HEK293T cell line stably expressing hURAT1
Assay type: cell-based
Conditions: [8-14C] uric acid uptake, HEK293T cells stably expressing hURAT1

SMILES: N#Cc1cc(-c2ccc(C(=O)O)c(O)c2)c2cc(F)sc2c1 [Example 30, 4-(6-cyano-2-fluorobenzo[b]thiophen-4-yl)-2-hydroxybenzoic Acid]
- IC50: 15 nM
